# Laboratory results taken from US8268635B2, “Methods of identifying agents that selectively activate p38 and/or NKkB signaling” (priority 2006, dated 2012).
# What was measured:
# Assay type in all cases: cell-based, human
# ERK = ERK activation in adherent neutrophils; settings: neutrophils pre-adhered to plasma-coated dishes; 15 min; TNF 1000 U/ml, TNF70-80 10 μM
# Description: ERK activation was determined by assessing the level of ERK1/ERK2 dual phosphorylation (a) or by kinase activity assay (b) after immunoprecipitation. JNK activity was assayed as described under Experimental using GST-jun (1-79) as the substrate (c). (a) Immunoblot probed with anti-ACTIVE ERK antibody (top panel), stripped, and re-probed with anti-ERK2 antibody (bottom panel). (b) The data is presented as the means+−sem of 3 experiments. […] Significance of difference between control and stimulated cells: *p<0.05.
# (§1) Neutrophils were prepared from peripheral blood of healthy donors by a rapid single-step technique (Kumaratilake, L. M., Rathjen, D. A., Mack, P., Widmer, F., Prasertsiriroj, V., and Ferrante, A. (1995) J. Clin. Invest. 95: 2315-2323) using Hypaque-Ficoll and according to the institution's guidelines on human ethics. The preparations of neutrophils were routinely of >99% viability and >98% purity. […]
# (§2) Western blot analysis was conducted as described previously (Hii, C. S., Huang, Z. H., Bilney, A., Costabile, M., Murray, A. W., Rathjen, D. A., Der, C. J., and Ferrante, A. (1998) J. Biol. Chem. 273: 19277-19282). […] The amounts of dually phosphorylated ERK1 and ERK2, phospho-JNK and NFκB p65 subunit were detected using rabbit anti-active ERK, mouse anti-phospho JNK and rabbit anti-NFκB antibody, respectively. […]
# ERK1/ERK2 = ERK1/ERK2 activation in neutrophils in suspension; settings: TNF, TNF70-80 15 min; PMA 100 nM 5 min
# Description: The blots were stripped and reprobed with anti-JNK1 antibody which detected the p46-kDa JNK1 isotype in each lane. […] The cells were lysed and the lysate assessed by western blot analysis for the level of dual-phosphorylated ERK1/ERK2 (top panel) and ERK2 protein (bottom panel). […] The level of myelin basic protein phosphorylation was quantitated by an Instant Imager. Results presented (a and b) are from one experiment, representative of three-four experiments, each conducted using cells from a different donor.
# as §1, §2
# JNK = JNK activity in HUVEC (GST-jun solid phase assay); settings: 15 min; TNF 100 and 1000 U/ml, TNF70-80 1-50 μM
# Description: The cells were lysed, and JNK activity was assayed using GST-jun (1-79) as a substrate. The data is presented as means+−sem of 3 experiments. […] The cells were lysed and the level of dual-phosphorylated ERK1/ERK2 was assessed by western blot analysis using the anti-ACTIVE ERK antibody (top panel). The blot was stripped and re-probed with an anti-ERK2 antibody (lower panel) to compare the level of ERK2 protein. The results are representative of 3 experiments, each conducted with cells from a different cord. […] The level of myelin basic protein phosphorylation was quantitated by an Instant Imager. Results are presented as the means+−sem of 3 experiments. Statistical analysis: significant difference between control and stimulated cells, *p<0.05.
# Fresh human umbilical cords were obtained from consenting mothers according to the institution's guidelines on human ethics. […]
# The cells were lysed in 200 μl of buffer A (20 mM HEPES, pH 7.4, 0.5% (v/v) Nonidet P-40, 100 mM NaCl, 1 mM EDTA, 2 mM Na3VO4, 2 mM dithiotbreitol, 1 mM phenylmethylsulfonyl fluoride, and 10 μg/ml leupeptin, aprotonin, pepstatin A, and benzamidine) for 2 h at 4° C. with constant mixing (20) After centrifugation (12,000 g×5 min), the supernatants were collected and the protein content of the lysates was determined by Lowry's method of protein determination. […]
substance,measurement,setting,value
"TNF: Human recombinant TNF produced by Genentech, Inc.",ERK activation in adherent neutrophils,ERK,stimulated
same,activity/dual phosphorylation of ERK in neutrophils in suspension,ERK1/ERK2,neither TNF nor TNF70-80 stimulated the activity of either JNK or ERK
same,activity of JNK in HUVEC,JNK,increased
